Test results: article PMC3817851, “Enzyme activity effects of N-terminal His-tag attached to catalytic sub-unit of phosphoinositide-3-kinase” (Bioscience Reports, 2013)

Sequences of proteins named here, by UniProt entry; tags and fusion partners are left off. A change or cut given only in a name is not applied to a line headed by its entry.
UniProt P42338: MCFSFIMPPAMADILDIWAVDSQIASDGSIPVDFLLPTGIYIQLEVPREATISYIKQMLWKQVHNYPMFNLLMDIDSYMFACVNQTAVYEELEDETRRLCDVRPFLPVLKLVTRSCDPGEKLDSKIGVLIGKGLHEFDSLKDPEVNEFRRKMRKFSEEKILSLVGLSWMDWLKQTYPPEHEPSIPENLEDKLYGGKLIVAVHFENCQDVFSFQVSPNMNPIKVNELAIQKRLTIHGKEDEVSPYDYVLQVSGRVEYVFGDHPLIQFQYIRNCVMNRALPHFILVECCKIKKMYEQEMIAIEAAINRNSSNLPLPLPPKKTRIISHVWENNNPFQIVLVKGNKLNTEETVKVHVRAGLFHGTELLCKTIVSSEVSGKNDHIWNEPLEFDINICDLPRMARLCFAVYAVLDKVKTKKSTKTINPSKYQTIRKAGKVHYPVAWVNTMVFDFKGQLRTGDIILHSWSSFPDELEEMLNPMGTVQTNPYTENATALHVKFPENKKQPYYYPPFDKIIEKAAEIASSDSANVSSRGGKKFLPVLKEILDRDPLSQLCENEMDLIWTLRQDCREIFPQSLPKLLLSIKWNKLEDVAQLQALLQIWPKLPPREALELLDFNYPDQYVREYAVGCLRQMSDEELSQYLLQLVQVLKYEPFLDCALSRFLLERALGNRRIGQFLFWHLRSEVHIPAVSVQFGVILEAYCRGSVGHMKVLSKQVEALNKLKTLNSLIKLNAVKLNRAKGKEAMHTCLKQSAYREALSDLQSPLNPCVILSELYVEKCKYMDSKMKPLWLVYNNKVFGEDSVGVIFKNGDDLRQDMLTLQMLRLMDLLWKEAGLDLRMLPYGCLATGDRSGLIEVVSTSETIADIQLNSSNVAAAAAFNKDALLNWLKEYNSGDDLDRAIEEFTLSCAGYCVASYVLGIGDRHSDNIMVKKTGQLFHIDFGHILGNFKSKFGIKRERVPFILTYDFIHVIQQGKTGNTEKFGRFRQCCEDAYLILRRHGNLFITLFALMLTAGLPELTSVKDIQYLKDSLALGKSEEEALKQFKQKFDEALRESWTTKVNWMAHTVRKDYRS

Target: T1, p110β (PI 3-Kβ, p110β/p85α) (Homo sapiens, UniProt P42338)
T1 construct: gene PIK3CB; full-length p110β with N-His6-rTEV tag (tag removed by rTEV) co-expressed with full-length p85α; baculovirus/Sf9; IMAC, MonoQ; heterodimer; with Phosphatidylinositol 3-kinase regulatory subunit alpha
Test: HTRF lipid kinase assay
Assay type: biochemical
Settings: […] ATP, PI([…])P2 substrate, His-tag removed
Excerpt: HTRF lipid kinase assay on p110β (PI 3-Kβ, p110β/p85α)

IC50: 11 nM
Compound: Cc1cc(C(C)Nc2ccccc2)c2nc(N3CCOCC3)cc(=O)n2c1 (stereo not shown) [TGX-221]
